# Experimental data reported in patent US20230293711A1, “DISRUPTION OF CD28-SIALOSIDE LIGAND COMPLEXES TO ENHANCE T CELL ACTIVATION” (THE SCRIPPS RESEARCH INSTITUTE, priority 2020, published 2023).
# Protein sequences, listed by entry. Tags and fused reporters are not part of them. Residues count along the entry.
# UniProt Q15116, 25-167 limits assumed: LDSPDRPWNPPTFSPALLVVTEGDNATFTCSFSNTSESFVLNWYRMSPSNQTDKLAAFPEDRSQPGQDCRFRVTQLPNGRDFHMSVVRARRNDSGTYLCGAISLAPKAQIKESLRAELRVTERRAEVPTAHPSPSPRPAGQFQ
# Molecular target: human PD-1 (human) (UniProt Q15116)
# Assay: ELISA (FIG. 11)
substance,measurement,value
anti-human PD-1 monoclonal antibody clone 409A11 (Keytruda/Pembrolizumab),EC50,0.036 µg/mL
